What was measured:
[1] = target: full-length SARS-CoV-2 hemagglutinin (HA)-Nsp3 (Severe acute respiratory syndrome coronavirus 2, UniProt P0DTD1); assay: biochemical
SARS-CoV-2 PLpro = SARS-CoV-2 PLpro (Severe acute respiratory syndrome coronavirus 2, UniProt P0DTD1); assay: biochemical

Molecule `COC(=O)/C=C/C(=O)NNC(=O)CCc1ccccc1C(=O)N[C@H](C)c1cccc2ccccc12` [Compound 7, methyl(R,E)-4-(2-(3-(2-((1-(naphthalen-1 yl)ethyl)carbamoyl)phenyl)propanoyl)hydrazineyl)-4-oxobut-2-enoate] has an IC50 [1] of 49 nM and an IC50 (SARS-CoV-2 PLpro) of 37 nM.
